Drawing on US7488745B2, “Compounds for the treatment of inflammatory disorders” (Schering Corporation, priority 2004, dated 2009), this text covers Ki for 65 compounds.

Chains of the proteins cited; added tags and fusions are not shown. Residues count along the entry.
UniProt P78536, 215-477 S266A/N452Q limits assumed: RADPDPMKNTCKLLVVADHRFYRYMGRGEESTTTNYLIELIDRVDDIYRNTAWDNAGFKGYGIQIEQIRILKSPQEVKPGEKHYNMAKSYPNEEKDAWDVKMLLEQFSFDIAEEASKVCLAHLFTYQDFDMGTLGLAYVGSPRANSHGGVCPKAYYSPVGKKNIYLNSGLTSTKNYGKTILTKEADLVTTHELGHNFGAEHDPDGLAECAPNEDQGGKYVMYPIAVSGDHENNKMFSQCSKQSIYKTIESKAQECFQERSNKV

By Ki is commonly meant the equilibrium dissociation constant of an inhibitor or competing ligand from its target.

One test deals with purified catalytic domain of recombinant human TACE (rhTACEc) (Homo sapiens, UniProt P78536, N452Q/S266A). Briefly: TACE kinetic assay: cleavage of internally quenched peptide substrate SPDL-3 (fluorescence). The settings on record: Ki (nM), Specific TACE inhibitory activity (Ki values).
As to `COc1ccc2c(c1)C(=O)N(C[C@@]1(c3ccc(-c4nccs4)cc3)NC(=O)NC1=O)C2` [Compound 8015], the inhibition constant Ki was 0.63 nM.
In the case of `COc1cc2c(cc1Cl)C(=O)N(CC1(c3ccc(F)cc3)NC(=O)NC1=O)C2` (centres unmarked) [Compound 296], the inhibitory constant (Ki) came to 1.01 nM.
On the same count and under the same terms, the same measure for `COc1ccc2c(c1)C(=O)N(C[C@@]1(c3cc4ccncc4o3)NC(=O)NC1=O)C2` [Compound 9220]: 0.75 nM.

Still in this test, the particulars now being: Ki (nM), TABLE 6000; Ki printed as class symbols A-D.
Turning to `COc1ccc2c(c1)C(=O)N(C[C@@]1(c3cnn(C(C)(C)C)c3)NC(=O)NC1=O)C2` [Compound 9003J], the Ki was less than 10 nM.
Turning to `Cn1ncc2cc(-c3ccc([C@]4(CN5Cc6ccc(OC(F)F)cc6C5=O)NC(=O)NC4=O)cc3)ccc21` [Compound 9740], the Ki was less than 10 nM.
Turning to `COc1ccc2c(c1)C(=O)N(C[C@@]1(c3cc(-c4cccnc4)no3)NC(=O)NC1=O)C2` [Compound 9249], the inhibition constant Ki was less than 10 nM.
In the case of `O=C1NC(=O)[C@](CN2Cc3ccc(O)cc3C2=O)(c2cn(-c3cnccn3)nn2)N1` [Compound 9932], the Ki was less than 10 nM.
For the compound `COc1cnc(-c2ccc([C@]3(CN4Cc5ccc(OC)cc5C4=O)NC(=O)NC3=O)cc2)nc1` [Compound 9502], the Ki is less than 10 nM.
With `COc1ccc2c(c1)C(=O)N(C[C@@]1(c3ccc(Oc4ccncc4)cc3)NC(=O)NC1=O)C2` [Compound 9614], the Ki is less than 10 nM.
As to `COc1ccc2c(c1)C(=O)N(C[C@@]1(c3cnn(C4CCCC4)n3)NC(=O)NC1=O)C2` [Compound 9266], the Ki was less than 10 nM.
Take `COc1ccc2c(c1)C(=O)N(C[C@@]1(c3ccc(-c4ccc5c(cnn5CC5CC5)c4)cc3)NC(=O)NC1=O)C2` [Compound 9744]: the Ki is less than 10 nM.
For `COc1ccc2c(c1)C(=O)N(C[C@@]1(c3cc4ccncc4o3)NC(=O)NC1=O)C2` [Compound 9220], the inhibitory constant (Ki) is less than 10 nM.
As to `COc1ccc2c(c1)C(=O)N(C[C@@]1(c3ccc(Oc4ccnc5ccccc45)cc3)NC(=O)NC1=O)C2` [Compound 9615], the Ki was less than 10 nM.
`Cc1ccc(-c2ccc([C@@]3(CN4Cc5ccc(O)cc5C4=O)NC(=O)NC3=O)cc2)nc1` [Compound 9908]: the Ki fell in the range of 100 to 1000 nM.
Regarding `COc1ccc2c(c1)C(=O)N(C[C@@]1(CCc3ccc(F)cc3)NC(=O)NC1=O)C2` [Compound 9236], the Ki is less than 10 nM.
On the same count and under the same terms, as for `COc1ccc2c(c1)C(=O)N(C[C@@]1(/C=C/c3cccc(C(C)C)c3)NC(=O)NC1=O)C2` [Compound 9239], the figure is less than 10 nM; as for `COc1ccc2c(c1)C(=O)N(C[C@@]1(c3cc4cc(-c5nnn[nH]5)cnc4o3)NC(=O)NC1=O)C2` [Compound 9212], less than 10 nM; as for `COc1ccc2c(c1)C(=O)N(C[C@@]1(c3ccc(-c4ccc5c(ccn5C)c4)cc3)NC(=O)NC1=O)C2` [Compound 9706], less than 10 nM.
As for `COc1ccc2c(c1)C(=O)N(C[C@@]1(c3ccc(-c4nc5ccccc5nc4O)cc3)NC(=O)NC1=O)C2` [Compound 9916], the Ki was less than 10 nM.
In the case of `COc1ccc2c(c1)C(=O)N(C[C@@]1(c3ccc(-c4cc(C)c5nn(C(C)C)cc5c4)cc3)NC(=O)NC1=O)C2` [Compound 9734], the inhibition constant (Ki) is less than 10 nM.
As for `CC#CCOc1ccc2c(c1)C(=O)N(C[C@@]1(c3ccc(-c4ccc5nn(CC6CC6)cc5c4)cc3)NC(=O)NC1=O)C2` [Compound 9749], the inhibition constant (Ki) was less than 10 nM.
Same read-out and setting: the same measure for `COc1ccc2c(c1)C(=O)N(C[C@@]1(c3ccc(-c4ccc(-c5nccs5)cn4)cc3)NC(=O)NC1=O)C2` [Compound 9501]: less than 10 nM; for `COc1ccc2c(c1)C(=O)N(C[C@@]1(c3ccc(-c4ccc5nn(C)c(C)c5c4)cc3)NC(=O)NC1=O)C2` [Compound 9705]: less than 10 nM.
Same read-out and setting: the same measure for `COc1ccc2c(c1)C(=O)N(C[C@@]1(c3ccc(-c4cc(C(F)(F)F)cc5c4ncn5CC4CC4)cc3)NC(=O)NC1=O)C2` [Compound 9506]: less than 10 nM.

Still in this test, the particulars now being: Ki (nM), TACE inhibitory activity, class letters.
Take `COc1ccc2c(c1)CN(CC1(C3CCN(c4ccccc4C#N)CC3)NC(=O)NC1=O)C2=O` (centres unmarked) [Compound 269]: the inhibition constant Ki was in the range of 10 to 100 nM.
For the compound `CC#CCOc1ccc2c(c1)CN(CC1(c3ccc(F)cc3)NC(=O)N(CC#CC)C1=O)C2=O` (centres unmarked) [Compound 210], the inhibition constant (Ki) was more than 1000 nM.
`O=C1NC(=O)C(CN2Cc3ccc(Cl)cc3C2=O)(CN2C[C@@H]3CCCN3C2=O)N1` (some centres unmarked) [Compound 40]: the Ki was more than 1000 nM.
Consider `O=C1NC(=O)[C@](CN2Cc3ccc(F)cc3C2=O)(c2ccc(F)cc2)N1` (single isomer, unassigned) [Compound 23], for which the inhibitory constant (Ki) is less than 10 nM.
The same measure, in the same setting: the same measure for `O=C1NC(=O)[C@](CN2Cc3ccc(F)cc3C2=O)(c2ccc(-c3ccc(F)cc3)cc2)N1` [Compound 126]: less than 10 nM.
As for `O=C1NC(=O)C(CN2Cc3ccc(F)cc3C2=O)(c2ccc(F)cc2)N1` (centres unmarked) [Compound 17], the Ki was less than 10 nM.
With `COc1ccc2c(c1)C(=O)N(CC1(c3ccc(-c4ccc5ncccc5c4)cc3)NC(=O)NC1=O)C2` (centres unmarked) [Compound 169], the Ki is less than 10 nM.
In the case of `O=C1NC(=O)[C@@](CN2Cc3ccc(F)cc3C2=O)(c2ccc(-c3cccc4cccnc34)cc2)N1` [Compound 153], the inhibition constant Ki was in the range of 100 to 1000 nM.
Regarding `CC#CCOc1ccc2c(c1)CN(C[C@]1(c3ccc(-c4ccncc4)cc3)C(=O)NC(=O)N1CC#CC)C2=O` [Compound 216], the inhibition constant (Ki) lay within 100 to 1000 nM.
Consider `COc1cc2c(cc1Cl)C(=O)N(CC1(c3ccc(F)cc3)NC(=O)NC1=O)C2` (centres unmarked) [Compound 296], for which the Ki was less than 10 nM.
For `Cc1cc(COc2ccc3c(c2)CN(CC2(C)NC(=O)NC2=O)C3=O)c2ccccc2n1` (centres unmarked) [Compound 194], the Ki was less than 10 nM.
Still for that read-out and setting: the same measure for `CCCCOc1ccc2c(c1)CN(CC1(c3ccc(F)cc3)NC(=O)NC1=O)C2=O` (centres unmarked) [Compound 220]: less than 10 nM.
Same read-out and setting: the same measure for `COc1ccc2c(c1)CN(CC1(c3ccc(N)cc3)NC(=O)NC1=O)C2=O` (centres unmarked) [Compound 286]: less than 10 nM; for `COc1ccc2c(c1)CN(CC1(c3ccc(NC(C)=O)cc3)NC(=O)NC1=O)C2=O` (centres unmarked) [Compound 285]: less than 10 nM; for `CC1(CN2Cc3ccc(Cl)cc3C2=O)NC(=O)NC1=O` (centres unmarked) [Compound 15]: 10 to 100 nM.
On to `O=C1NC(=O)[C@](CN2Cc3ccc(O)cc3C2=O)(c2ccc(F)cc2)N1` [Compound 242], for which the inhibitory constant (Ki) is less than 10 nM.
As to `COc1ccc2c(c1)CN(CC1(c3ccc(-c4cc(F)c(F)c(F)c4)cc3)NC(=O)NC1=O)C2=O` (centres unmarked) [Compound 27], the Ki lay in the range of 10 to 100 nM.
Take `O=C1NC(=O)C(CN2Cc3cc(OCc4cc(-c5ccccc5)nc5ccccc45)ccc3C2=O)(c2ccccc2)N1` (centres unmarked) [Compound 195]: the inhibition constant Ki lay in the range of 10 to 100 nM.
`COc1ccc2c(c1)CN(CC1(C3CCN(S(C)(=O)=O)CC3)NC(=O)NC1=O)C2=O` (centres unmarked) [Compound 252]: the inhibitory constant (Ki) lay in the range of 10 to 100 nM.
In the case of `COc1ccc2c(c1)CN(CC1(C3CCN(C4CCC4)CC3)NC(=O)NC1=O)C2=O` (centres unmarked) [Compound 272], the inhibition constant (Ki) was 100 to 1000 nM.
In the case of `O=C1NC(=O)[C@](CN2Cc3ccc(F)cc3C2=O)(c2ccc(-c3ccc4[nH]ccc4c3)cc2)N1` [Compound 149], the Ki is less than 10 nM.
As for `COc1ccc2c(c1)CN(C[C@@]1(c3ccc(Br)cc3)NC(=O)NC1=O)C2=O` [Compound 235], the Ki was less than 10 nM.
In the case of `COc1ccc2c(c1)CN(CC1(C3CCN(S(=O)(=O)c4ccc(Cl)s4)CC3)NC(=O)NC1=O)C2=O` (centres unmarked) [Compound 259], the inhibition constant (Ki) was less than 10 nM.
Still for that read-out and setting: as for `O=C1NC(=O)C(CN2Cc3ccc(F)cc3C2=O)(c2nc3ccccc3s2)N1` (centres unmarked) [Compound 180], the figure is 10 to 100 nM.
As to `COc1ccc2c(c1)CN(CC1(CNC3CCCC3)NC(=O)NC1=O)C2=O` (centres unmarked) [Compound 36], the Ki is 10 to 100 nM.
Turning to `O=C1NC(=O)C(CN2Cc3ccc(F)cc3C2=O)(c2ccc(-c3cccc4cnccc34)cc2)N1` (centres unmarked) [Compound 165], the Ki was less than 10 nM.
As for `O=C1NC(=O)C(CN2Cc3ccc(F)cc3C2=O)(c2nc3ccccc3[nH]2)N1` (centres unmarked) [Compound 183], the inhibition constant Ki is less than 10 nM.
Consider `O=C1NC(=O)C(CN2Cc3ccc(F)cc3C2=O)(c2ccc(Br)cc2)N1` (centres unmarked) [Compound 18], for which the Ki is less than 10 nM.
For the compound `COc1ccc2c(c1)C(=O)N(CC1(c3ccc(Br)cc3)NC(=O)NC1=O)C2` (centres unmarked) [Compound 186], the Ki is less than 10 nM.

Still in this test, the particulars now being: Ki Rating, TACE inhibitory activity, Table 3000.
As to `O=C1NC(=O)C(CN2Cc3ccc(F)cc3C2=O)(c2ccc(-c3ccc(-n4ccnc4)cc3)cc2)N1` (centres unmarked) [Compound 7005], the inhibition constant Ki lay within 10 to 100 nM.
For the compound `O=C1NC(=O)C(CN2Cc3ccc(OCC(F)(F)F)cc3C2=O)(c2ccc(F)cc2)N1` (centres unmarked) [Compound 2021F], the Ki lay in the range of 100 to 1000 nM.
Regarding `COc1ccc2c(c1)C(=O)N(C[C@@]1(c3ccc(-c4nccs4)cc3)NC(=O)NC1=O)C2` [Compound 8015], the Ki was less than 10 nM.
Still for that read-out and setting: the same measure for `COc1ccc2c(c1)CN(CC1(c3ccc(OC4CCCC4)cc3)NC(=O)NC1=O)C2=O` (centres unmarked) [Compound 5022]: less than 10 nM.
With `O=C1NC(=O)C(CN2Cc3cc(OCc4cccc5nonc45)ccc3C2=O)(c2ccc(F)cc2)N1` (centres unmarked) [Compound 7002], the inhibition constant (Ki) lay within 10 to 100 nM.
Take `COc1ccc2c(c1)C(=O)N(C[C@@]1(c3ccc(-c4c(N)n[nH]c4C(F)(F)F)cc3)NC(=O)NC1=O)C2` [Compound 4032]: the Ki is less than 10 nM.
As to `CC#CCOc1cc2c(cc1Cl)C(=O)N(CC1(C)NC(=O)NC1=O)C2` (centres unmarked) [Compound 5008], the Ki was 10 to 100 nM.
On to `Cc1nc(-c2cccc(-c3ccc([C@]4(CN5Cc6ccc(F)cc6C5=O)NC(=O)NC4=O)cc3)c2)cs1` [Compound 3022], for which the Ki fell in the range of 10 to 100 nM.
`COc1ccc2c(c1)C(=O)N(C[C@@]1(c3ccc(-c4cccc(F)c4)cc3)NC(=O)NC1=O)C2` [Compound 4030]: the Ki was less than 10 nM.
As for `O=C1NC(=O)C(CN2Cc3cc(OCC#CCO)c(F)cc3C2=O)(c2ccc(F)cc2)N1` (centres unmarked) [Compound 2031D], the inhibition constant Ki is less than 10 nM.
For the compound `COc1ccc2c(c1)C(=O)N(C[C@@]1(c3ccc(-c4cccc(C)n4)cc3)NC(=O)NC1=O)C2` [Compound 4035], the Ki is less than 10 nM.
Same read-out and setting: the same measure for `NC(=O)c1ccc2c(c1)CN(CC1(c3ccc(F)cc3)NC(=O)NC1=O)C2=O` (centres unmarked) [Compound 2032B]: 10 to 100 nM; for `COc1ccc2c(c1)C(=O)N(C[C@@]1(c3ccc(-c4cc(C)c5[nH]ncc5c4)cc3)NC(=O)NC1=O)C2` [Compound 7008]: less than 10 nM.
On to `O=C1NC(=O)C(CN2Cc3cc(OCc4ccc5nonc5c4)ccc3C2=O)(c2ccc(F)cc2)N1` (centres unmarked) [Compound 7000], for which the Ki was in the range of 100 to 1000 nM.
Regarding `O=C1NC(=O)C(CN2Cc3cc(OCCO)c(F)cc3C2=O)(c2ccc(F)cc2)N1` (centres unmarked) [Compound 2031F], the inhibition constant (Ki) lay in the range of 10 to 100 nM.
